“Also recorded” adds a separate entry of the source.
Experiments:
ghrelin receptor = target: T1, ghrelin receptor (Homo sapiens, UniProt Q92847); assay: Radioligand binding of [125I]-ghrelin and [125I]-des-acyl ghrelin; settings: [125I]-des-acyl ghrelin; n=3
T1 construct: expressed in transfected cells; host or cells: HEK293 cells (membrane preparations, transient expression)

Protein sequences, listed by entry. Tags and fused reporters are not part of them.
UniProt Q92847, whole entry: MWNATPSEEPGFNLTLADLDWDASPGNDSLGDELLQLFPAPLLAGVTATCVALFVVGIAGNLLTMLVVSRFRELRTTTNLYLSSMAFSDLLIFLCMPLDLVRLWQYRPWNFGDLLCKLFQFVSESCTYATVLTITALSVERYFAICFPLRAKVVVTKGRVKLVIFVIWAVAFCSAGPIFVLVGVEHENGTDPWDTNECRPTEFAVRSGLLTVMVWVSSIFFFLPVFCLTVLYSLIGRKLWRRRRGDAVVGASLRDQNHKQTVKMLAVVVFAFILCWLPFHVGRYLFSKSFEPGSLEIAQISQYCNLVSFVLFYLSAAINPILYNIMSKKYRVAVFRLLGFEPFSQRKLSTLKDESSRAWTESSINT
UniProt Q92847, whole entry N188Q: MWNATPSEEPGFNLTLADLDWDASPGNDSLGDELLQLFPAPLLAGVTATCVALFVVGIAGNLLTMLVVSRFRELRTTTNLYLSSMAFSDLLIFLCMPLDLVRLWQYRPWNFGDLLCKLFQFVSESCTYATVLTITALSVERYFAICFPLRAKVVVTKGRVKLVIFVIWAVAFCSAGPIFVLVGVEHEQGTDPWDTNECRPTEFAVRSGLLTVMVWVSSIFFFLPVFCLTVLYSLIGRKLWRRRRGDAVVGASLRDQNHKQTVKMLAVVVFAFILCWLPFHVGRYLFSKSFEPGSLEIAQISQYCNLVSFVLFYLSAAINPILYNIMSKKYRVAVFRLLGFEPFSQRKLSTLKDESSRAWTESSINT

ghrelin receptor WT = ghrelin receptor WT (Homo sapiens, UniProt Q92847, N188Q); assay: Intracellular Ca2+ concentration assay, WT receptor in CHO cells; type: cell-based; design: Full-length human ghrelin receptor was used for the mutagenesis; expressed in transfected cells; host or cells: CHO cells
Protocol: The positions of mutated amino acids and primers are listed in Supplementary Table 2.
Transfections were performed using the FuGENE HD transfection reagent (Promega). The next day, the transfected cells were collected and plated into 96-well black-wall assay microplates (Corning) at a density of 3 × 10^4 cells/well. After a 1-day incubation, the cells were incubated for 1 h with 100 μl of calcium indicator Fluo-4 from the FLIPR Calcium 5 Assay Kit (Molecular Devices) in Hank’s BSS containing 20 mM HEPES-NaOH (pH7.5) and 2.5 mM probenecid. Fifty-microliter aliquots of samples were tested to induce changes in fluorescence due to increased calcium concentration on a FlexStation3 (Molecular Devices). Maximum [Ca^2+]i changes were determined in quadruplicate (n = 4).

Substance: des-acyl ghrelin
- specific binding (ghrelin receptor): too low to calculate the specific bindings; also recorded: did not bind to the ghrelin receptor at all
- activation of the ghrelin receptor (ghrelin receptor WT): unable to activate the ghrelin receptor

Reference: PMC7438500 (Nature Communications, 2020)
